pIC50: −log10 of the molar value.
How the values were obtained:
cyclin A = cyclin A (Homo sapiens, UniProt P20248); assay: Competitive cyclin A binding assay
CDK2/cyclin A = CDK2/cyclin A (Homo sapiens, UniProt P20248); assay: CDK2/cyclin A kinase activity assay; assay type: biochemical

Structure (SMILES) | potency decrease (cyclin A; relative to the unmodified parent peptide (Table 2)) | pIC50 (CDK2/cyclin A) | pIC50 (cyclin A)
CC(C)C[C@H](NC(=O)[C@H](CCCNC(=N)N)NC(=O)[C@@H](N)CCCNC(=N)N)C(=O)N[C@@H](Cc1ccccc1)C(N)=O [SEQ ID NO: 20, H-Arg-Arg-Leu-Phe-NH2] | more than 10 fold | – | –
CC(C)C[C@H](NC(=O)[C@H](CCCNC(N)=O)NC(=O)[C@@H](N)CCCNC(N)=O)C(=O)N[C@@H](C)C(=O)N[C@@H](Cc1ccc(F)cc1)C(N)=O [SEQ ID NO: 27, H-Cit-Cit-Leu-Ala-(p-F-Phe)-NH2] | – | 4.92 | 4.10

— patent US20050260730A1, “CDK2/cyclin A crystals and uses thereof” (priority 2003, published 2005)
